According to patent US20230151340A1, “PLASTIC DEGRADING FUSION PROTEINS AND METHODS OF USING THE SAME” (Alliance for Sustainable Energy, LLC, priority 2020, published 2023):

Substrate: O=C(O)c1ccc(C(=O)OCCO)cc1
Test: Michaelis-Menten kinetics of MHETase and variants (substrate inhibition model)
Format: biochemical, Ideonella sakaiensis 201-F6
Settings: other: MHET 10-250 μM, 5 nM enzyme, pH 7.5, 30° C.

B1: Ideonella sakaiensis 201-F6 MHETase (Is MHETase) variant S131G (parent Genbank GAP38911.1), C-terminal His tag (Pseudideonella sakaiensis; S131G) (protein)
chain: CAGGGSTPLPLPQQQPPQQEPPPPPVPLASRAACEALKDGNGDMVWPNAATVVEVAAWRDAAPATASAAALPEHCEVSGAIAKRTGIDGYPYEIKFRLRMPAEWNGRFFMEGGGGTNGSLSAATGSIGGGQIASALSRNFATIATDGGHDNAVNDNPDALGTVAFGLDPQARLDMGYNSYDQVTQAGKAAVARFYGRAADKSYFIGCSEGGREGMMLSQRFPSHYDGIVAGAPGYQLPKAGISGAWTTQSLAPAAVGLDAQGVPLINKSFSDADLHLLSQAILGTCDALDGLADGIVDNYRACQAAFDPATAANPANGQALQCVGAKTADCLSPVQVTAIKRAMAGPVNSAGTPLYNRWAWDAGMSGLSGTTYNQGWRSWWLGSFNSSANNAQRVSGFSARSWLVDFATPPEPMPMTQVAARMMKFDFDIDPLKIWATSGQFTQSSMDWHGATSTDLAAFRDRGGKMILYHGMSDAAFSALDTADYYERLGAAMPGAAGFARLFLVPGMNHCSGGPGTDRFDMLTPLVAWVERGEAPDQISAWSGTPGYFGVAARTRPLCPYPQIARYKGSGDINTEANFACAAPP
Km: 995.10 ± 19.58 µM
Vmax: 27.3 µM/min
kcat/Km: 90000 M⁻¹ s⁻¹
